Tested on: Human umbilical vein endothelial cells (HUVEC)
Assay: Inhibition of growth factor-mediated cell proliferation (hFGF-2, HUVEC)
Assay type: cell-based
Settings: 72 h, read-out: hFGF-2 mediated HUVEC proliferation, IC50 [nM]

Row | Structure (SMILES) | IC50
1 | COCc1c(-c2cc3cc(C)cc(OC)c3s2)c2c(N)ncnn2c1CN[C@@H]1CCNC1=O [Example 4, (3R)-3-({[4-Amino-6-(methoxymethyl)-5-(7-methoxy-5-methyl-1-benzothiophen-2-yl)pyrrolo-[2,1-f][1,2,4]triazin-7-yl]methyl}amino)pyrrolidin-2-one] | 17.5 nM
2 | CCOCc1c(-c2cc3cc(C)cc(OC)c3s2)c2c(N)ncnn2c1CN1CCNC(=O)C1 [Example 5, 4-{[4-Amino-6-(ethoxymethyl)-5-(7-methoxy-5-methyl-1-benzothiophen-2-yl)pyrrolo[2,1-f]-[1,2,4]triazin-7-yl]methyl}piperazin-2-one] | 5.3 nM
